The experiment has as its target cation independent mannose-6-phosphate receptor (CIMPR). In words: method not stated.

B1: rhα-Gal A as described herein (clone or preparation not specified) (enzyme)
chain: LDNGLARTPTMGWLHWERFMCNLDCQEEPDSCISEKLFMEMAELMVSEGWKDAGYEYLCIDDCWMAPQRDSEGRLQADPQRFPHGIRQLANYVHSKGLKLGIYADVGNKTCAGFPGSFGYYDIDAQTFADWGVDLLKFDGCYCDSLENLADGYKHMSLALNRTGRSIVYSCEWPLYMWPFQKPNYTEIRQYCNHWRNFADIDDSWKSIKSILDWTSFNQERIVDVAGPGGWNDPDMLVIGNFGLSWNQQVTQMALWAIMAAPLFMSNDLRHISPQAKALLQDKDVIAINQDPLGKQGYQLRQGDNFEVWERPLSGLAWAVAMINRQEIGGPRSYTIAVASLGKGVACNPACFITQLLPVKRKLGFYEWTSRLRSHINPTGTVLLQLENTMQMSLKDLL
modifications: N-linked glycans (mono-M6P, bis-M6P, sialylated, neutral), typically at Asn-108, Asn-161 and Asn-184 of SEQ ID NO: 2
Consider B1, for which the Kd was approximately 3 nM.

The Kd is the equilibrium constant for the complex coming apart. Low values mean a tighter complex, high ones a looser complex.

(Values after US20190358302A1 (AMICUS THERAPEUTICS, published 2019).)
